# Biological target: T cell receptor of the HLA-A2-restricted, HTLV-1 Tax11-19-specific CTL clone A6
# Assay: flow cytometry on A6 cells
substance,measurement,value
peptide-tethered tax-β2M HLA-A2/Ig complex (from UniProt P61769 21-119) (peptide-MHC),mean channel fluorescence (MCF),4000

# — patent US20020006903A1
